Data set [1] in a line: in vivo. The following applies: C57BL/6, mouse, sc.
The nature of data set [2]: in vivo. The following applies: male, cynomolgus monkey, sc, 0.03 mg/kg.

As usually defined, the Tmax is the time at which the peak concentration occurs. In general, half-life refers to how long it takes for the measured level to halve. In general, AUC(0-inf) refers to the area under the concentration-time curve extrapolated to infinity. A low value points to less exposure. Usually Cmax stands for the maximum level reached in the sampled fluid or tissue.

For the compound `CCCCCCCCCCCC(CCCCCCCCCCC(=O)O)(C(=O)O)C(=O)NCCOCCOCCC(=O)NCCCC[C@H](NC(=O)[C@H](C)NC(=O)[C@H](C)NC(=O)[C@H](CCC(N)=O)NC(=O)CNC(=O)[C@H](CCC(=O)O)NC(=O)[C@H](CC(C)C)NC(=O)[C@H](Cc1ccc(O)cc1)NC(=O)[C@H](CO)NC(=O)[C@H](CO)NC(=O)[C@@H](NC(=O)[C@H](CC(=O)O)NC(=O)[C@H](CO)NC(=O)[C@@H](NC(=O)[C@H](Cc1ccccc1)NC(=O)[C@@H](NC(=O)CNC(=O)[C@H](CCC(=O)O)NC(=O)C(C)(C)NC(=O)[C@@H](N)Cc1c[nH]cn1)[C@@H](C)O)[C@@H](C)O)C(C)C)C(=O)N[C@@H](CCC(=O)O)C(=O)N[C@@H](Cc1ccccc1)C(=O)N[C@H](C(=O)N[C@@H](C)C(=O)N[C@@H](Cc1c[nH]c2ccccc12)C(=O)N[C@@H](CC(C)C)C(=O)N[C@H](C(=O)N[C@@H](CCCNC(=N)N)C(=O)NCC(=O)N[C@@H](CCCNC(=N)N)C(=O)NCC(=O)O)C(C)C)[C@@H](C)CC` (stereo partly drawn) [Compound 5], in “in vivo [1]”, the Tmax was 24 h and the half-life is 50.4 h. In “in vivo [2]”, the AUC(0-inf) is 6.34 µM·h, the Cmax is 31.4 ± 10.4 nM, the Tmax was 31.2 h and the half-life was 106 h.

Values taken from patent US20240247042A1, “GLUCAGON LIKE PEPTIDE COMPOUNDS” (Novartis AG, priority 2021, published 2024).
